pIC50: −log10 of the molar value.
Molecular target: human PDE10A2 (Homo sapiens (Human), UniProt Q9Y233)
Assay: PDE10A enzyme inhibition, PDE IMAP TR-FRET assay
Assay type: biochemical
Settings: FAM-cAMP substrate
Procedure: An IMAP TR-FRET assay was used to analyze the enzyme activity (Molecular Devices Corp., Sunnyvale Calif.). 10 μL of serial diluted PDE10A (BPS Bioscience, San Diego, Calif.) or tissue homogenate was incubated with equal volumes of diluted fluorescein labeled cAMP or cGMP for 90 min in 384-well Polypropylene assay plates (Greiner, Monroe, N.C.) at room temperature. After incubation, the reaction was stopped by adding 55 μL of diluted binding reagents and was incubated for 4 hours to overnight at room temperature. The plates were read on an Envision (Perkin Elmer, Waltham, Mass.) for time resolved fluorescence resonance energy transfer. The data were analyzed with Genedata Screener® (Lexington, Mass.).
To check the inhibition profile, 0.2 μL of serial diluted compounds were incubated with 10 μL of diluted PDE10 enzyme (BPS Bioscience, San Diego, Calif.) or tissue homogenate in a 384-well Polypropylene assay plate (Greiner, Monroe, N.C.) for 60 min at room temperature. […] The reaction was stopped by adding 55 μL of diluted binding reagents and plates were read on an Envision (Perkin Elmer, Waltham, Mass.) for time resolved fluorescence resonance energy transfer. The data were analyzed with Genedata Screener® (Lexington, Mass.). […]
The PDE IMAP assay was conducted in a 384-well black Greiner polypropylene plate (Sigma, St. Louis, Mo.). […] Fluorescence signals were measured at 520 nm and 485 nm. […]

Sequences of proteins named here, by UniProt entry; tags and fusion partners are left off. Residues count along the entry.
UniProt Q9Y233, 267-1055: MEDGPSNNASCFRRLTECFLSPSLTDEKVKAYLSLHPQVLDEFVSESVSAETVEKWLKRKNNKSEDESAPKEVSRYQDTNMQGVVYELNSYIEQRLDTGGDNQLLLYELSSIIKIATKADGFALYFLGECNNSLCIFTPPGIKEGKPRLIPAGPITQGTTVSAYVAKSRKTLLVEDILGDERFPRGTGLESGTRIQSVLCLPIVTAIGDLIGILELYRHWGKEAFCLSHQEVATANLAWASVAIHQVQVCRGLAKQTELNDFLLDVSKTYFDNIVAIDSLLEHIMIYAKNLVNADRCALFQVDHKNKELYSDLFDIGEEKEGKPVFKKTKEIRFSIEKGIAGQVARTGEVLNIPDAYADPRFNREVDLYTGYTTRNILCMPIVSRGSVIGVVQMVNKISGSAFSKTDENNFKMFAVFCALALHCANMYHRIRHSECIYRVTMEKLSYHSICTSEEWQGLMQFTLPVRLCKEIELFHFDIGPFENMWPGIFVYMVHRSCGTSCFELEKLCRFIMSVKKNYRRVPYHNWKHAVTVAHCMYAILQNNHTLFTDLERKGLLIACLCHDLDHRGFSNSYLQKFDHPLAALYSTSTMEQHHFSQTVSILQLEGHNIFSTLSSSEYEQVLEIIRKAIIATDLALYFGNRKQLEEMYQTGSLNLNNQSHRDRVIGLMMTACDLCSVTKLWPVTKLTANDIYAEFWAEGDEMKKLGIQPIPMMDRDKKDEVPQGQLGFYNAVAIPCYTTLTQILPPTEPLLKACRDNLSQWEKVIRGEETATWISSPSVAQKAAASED

## CNC(=O)c1cccc(-c2nccnc2C2CN(c3ccc4ccccc4n3)C2)c1 [Compound 17, N-methyl-3-(3-(1-(quinolin-2-yl)azetidin-3-yl)pyrazin-2-yl)benzamide, reference compound]
  pIC50: 8.70

Source: patent US8691986B2, “Azetidine and piperidine compounds useful as PDE10 inhibitors” (Amgen Inc., priority 2012, dated 2014)
